Laboratory results reported in PubChem BioAssay AID588809 (National Center for Advancing Translational Sciences (NCATS), 2011).
The entries are a selection whose mix differs from that of the whole data set. Calls of active or inactive are those of the source. Calls follow the shape of the full dose curve.

Protein sequences, listed by entry. Tags and fused reporters are not part of them. Lines headed by an entry give the natural chain unless they say otherwise; changes in a name come on top.
UniProt Q9UIF8: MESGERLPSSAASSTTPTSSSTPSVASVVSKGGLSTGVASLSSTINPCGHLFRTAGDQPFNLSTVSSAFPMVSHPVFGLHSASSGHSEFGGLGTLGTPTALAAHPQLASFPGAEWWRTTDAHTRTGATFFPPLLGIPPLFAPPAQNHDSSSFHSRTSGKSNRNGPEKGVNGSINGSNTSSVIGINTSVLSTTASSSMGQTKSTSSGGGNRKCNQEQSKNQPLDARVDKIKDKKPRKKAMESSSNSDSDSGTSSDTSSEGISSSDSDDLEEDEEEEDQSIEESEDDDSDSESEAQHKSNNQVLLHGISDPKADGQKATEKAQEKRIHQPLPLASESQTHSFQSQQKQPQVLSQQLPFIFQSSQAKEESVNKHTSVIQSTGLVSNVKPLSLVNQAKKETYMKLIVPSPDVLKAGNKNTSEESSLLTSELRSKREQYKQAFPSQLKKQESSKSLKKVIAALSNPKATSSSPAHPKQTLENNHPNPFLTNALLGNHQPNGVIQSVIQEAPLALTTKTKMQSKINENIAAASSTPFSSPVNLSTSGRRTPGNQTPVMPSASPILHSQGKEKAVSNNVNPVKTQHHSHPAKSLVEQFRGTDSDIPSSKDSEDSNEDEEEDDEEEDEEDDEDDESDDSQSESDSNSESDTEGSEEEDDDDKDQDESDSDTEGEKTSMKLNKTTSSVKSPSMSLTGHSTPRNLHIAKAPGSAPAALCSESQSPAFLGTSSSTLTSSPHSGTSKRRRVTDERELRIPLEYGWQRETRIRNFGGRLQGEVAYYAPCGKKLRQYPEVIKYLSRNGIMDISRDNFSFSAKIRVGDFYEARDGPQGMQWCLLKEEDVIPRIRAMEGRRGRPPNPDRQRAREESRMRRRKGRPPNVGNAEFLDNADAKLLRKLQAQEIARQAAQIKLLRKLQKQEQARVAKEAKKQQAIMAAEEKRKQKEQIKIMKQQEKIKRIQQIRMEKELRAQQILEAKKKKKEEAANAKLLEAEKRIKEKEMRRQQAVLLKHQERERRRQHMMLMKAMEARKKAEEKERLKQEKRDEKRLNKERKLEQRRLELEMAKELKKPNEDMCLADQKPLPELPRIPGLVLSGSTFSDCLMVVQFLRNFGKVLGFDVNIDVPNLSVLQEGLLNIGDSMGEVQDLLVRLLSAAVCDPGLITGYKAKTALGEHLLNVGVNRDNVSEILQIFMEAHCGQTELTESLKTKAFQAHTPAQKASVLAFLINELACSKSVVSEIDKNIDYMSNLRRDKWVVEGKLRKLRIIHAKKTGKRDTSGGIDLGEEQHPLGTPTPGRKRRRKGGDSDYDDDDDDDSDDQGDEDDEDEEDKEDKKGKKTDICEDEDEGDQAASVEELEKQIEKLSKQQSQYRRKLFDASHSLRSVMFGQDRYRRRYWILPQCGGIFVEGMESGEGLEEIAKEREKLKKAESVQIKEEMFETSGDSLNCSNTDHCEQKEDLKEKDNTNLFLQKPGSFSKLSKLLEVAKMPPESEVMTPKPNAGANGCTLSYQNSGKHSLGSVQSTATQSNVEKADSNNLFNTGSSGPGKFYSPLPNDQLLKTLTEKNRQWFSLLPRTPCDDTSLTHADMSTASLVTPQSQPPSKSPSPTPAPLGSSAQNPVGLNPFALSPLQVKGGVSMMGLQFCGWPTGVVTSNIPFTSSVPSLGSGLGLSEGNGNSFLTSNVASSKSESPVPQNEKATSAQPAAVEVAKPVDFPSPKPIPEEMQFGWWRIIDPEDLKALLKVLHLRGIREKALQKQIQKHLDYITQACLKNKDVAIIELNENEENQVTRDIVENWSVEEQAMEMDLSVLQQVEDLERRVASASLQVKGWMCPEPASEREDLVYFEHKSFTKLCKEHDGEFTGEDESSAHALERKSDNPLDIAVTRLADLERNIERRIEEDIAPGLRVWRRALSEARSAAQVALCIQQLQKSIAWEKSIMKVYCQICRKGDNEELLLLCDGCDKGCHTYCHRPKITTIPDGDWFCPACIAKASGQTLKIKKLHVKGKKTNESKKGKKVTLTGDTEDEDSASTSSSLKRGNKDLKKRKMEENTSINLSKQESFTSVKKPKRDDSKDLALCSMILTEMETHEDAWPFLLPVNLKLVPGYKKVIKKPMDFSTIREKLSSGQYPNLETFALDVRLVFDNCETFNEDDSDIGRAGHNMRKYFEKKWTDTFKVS

Each compound was assayed against Bromodomain adjacent to zinc finger domain protein 2B (Homo sapiens) (UniProt Q9UIF8) (assay: qHTS Assay for Inhibitors of BAZ2B: Hit Validation). Conditions: AlphaScreen BAZ2B / biotin-H3K14Ac peptide displacement.
Source text: BAZ2B (bromodomain adjacent to zinc finger domain, 2B) belongs to a family of ubiquitously expressed bromodomain containing proteins, which biological function has not yet been elucidated. […] The interaction of BAZ2B with ISWI mediated by the BAZ1 motif has recently been described. […] The protocol is based on the AlphaScreen (PerkinElmer) displacement assay developed by NCGC [5], but uses the peptide ligand Biot-H3K14Ac, a high affinity binding partner for BAZ2B, in an AlphaScreen format. Although AlphaScreen has significant advantages with its utility in a variety of epigenetic target assays, the primary screening data provided in this deposition should be used with caution due to the prevalence of screening artifacts. The top compound concentration tested was 110uM in this assay, which increases number of actives and potential artifacts. […] Yasgar, et al. Compound Management for Quantitative High-Throughput Screening. […] Inglese, et al. Quantitative high-throughput screening: a titration-based approach that efficiently identifies biological activities in large chemical libraries. […]
To each well of a 1,536w plate, 2ul of BAZ2B protein (final 50nM) and 1ul biotinylated histone peptide acetylated at Lys14 [b-H3(5-23)K14Ac] […] Plates were read on an EnVision multilabel plate reader using the 1,536 plate HTS AlphaScreen aperture (excitation time 80 ms, measurement time 240 ms).

Row | Structure (SMILES) | Potency
1 | O=P(Nc1nccs1)(c1ccccc1)c1nc2ccccc2s1 (stereo unspecified) | active: 1000 nM
